Measurements reported in patent publication US20240150476A1 (Chugai, published 2024).

What was measured:
IL6R90-G1m/k0 [1] = biological target: T1, IL6R90-G1m/k0 (Homo sapiens (Human), UniProt P01834 1-107); assay: BLI (Octet HTX), hsIL-6R-BAP1 on streptavidin sensor, molecule as analyte, 30 C
Procedure: Next, the IL6R binding evaluation of VHH released by protease treatment was conducted using Octet HTX (Pall ForteBio Corp.). Specifically, hsIL-6R-BAP1 was bound to a streptavidin sensor (Pall ForteBio Corp., 18-5021), and each cleaved IgG antibody-like molecule was allowed to act thereon, followed by binding evaluation at 30° C. As a result, the binding was confirmed in IL6R90H1002/VK1-39-k0MT, IL6R90H1004/VK1-39-k0MT, IL6R90H1005/VK1-39-k0MT, and IL6R90H1006/VK1-39-k0MT. IL6R90-G1m/k0 and IL6R90-G1m/lamL divalently bound with avidity, whereas the released VHH bound with affinity. […] Therefore, its response, binding amount, was lower.

IL6R90-G1m/k0 [2] = biological target: T1, IL6R90-G1m/k0; assay: BLI (Octet HTX), molecule captured on Protein A biosensor, hsIL-6R as analyte, 30 C
Procedure: The hsIL-6R binding evaluation of each molecule was conducted using Octet HTX (Pall ForteBio Corp.). Specifically, each molecule was bound to Biosensor/Protein A (ProA) (Pall ForteBio Corp., 18-5013), and hsIL-6R was allowed to act thereon, followed by binding evaluation at 30° C.

Binder	binding result (IL6R90-G1m/k0 [1])	binding result (IL6R90-G1m/k0 [2])
hsIL-6R-BAP1 (receptor, biotin on the C-terminal AviTag sequence (BirA), also called hsIL-6R-Avitag; biotinylated soluble human IL6R) LAPRRCPAQEVARGVLTSLPGDSVTLTCPGVEPEDNATVHWVLRKPAAGSHPSRWAGMGRRLLLRSVQLHDSGNYSCYRAGRPAGTVHLLVDVPPEEPQLSCFRKSPLSNVVCEWGPRSTPSLTTKAVLLVRKFQNSPAEDFQEPCQYSQESQKFSCQLAVPEGDSSFYIVSMCVASSVGSKFSKTQTFQGCGILQPDPPANITVTAVARNPRWLSVTWQDPHSWNSSFYRLRFELRYRAERSKTFTTWMVKDLQHHCVIHDAWSGLRHVVQLRAQEEFGQGEWSEWSPEAMGTPWTESRSPPAENEVSTPMQALTTNKDDDNILFRDSANATSLPVQGGGGSGLNDIFEAQKIEWHE	binds	
soluble human IL-6R (receptor, Expressed in CHO cells and purified from the supernatant; also called hsIL-6R; recombinant human IL6R) LAPRRCPAQEVARGVLTSLPGDSVTLTCPGVEPEDNATVHWVLRKPAAGSHPSRWAGMGRRLLLRSVQLHDSGNYSCYRAGRPAGTVHLLVDVPPEEPQLSCFRKSPLSNVVCEWGPRSTPSLTTKAVLLVRKFQNSPAEDFQEPCQYSQESQKFSCQLAVPEGDSSFYIVSMCVASSVGSKFSKTQTFQGCGILQPDPPANITVTAVARNPRWLSVTWQDPHSWNSSFYRLRFELRYRAERSKTFTTWMVKDLQHHCVIHDAWSGLRHVVQLRAQEEFGQGEWSEWSPEAMGTPWTESRSPPAENEVSTPMQALTTNKDDDNILFRDSANATSLPVQ		binds
